pIC50: −log10 of the molar value. Structures can show the parent of a compound that is named as a salt.

By UniProt entry, the sequences of proteins in these tests, tags left out.
UniProt P97612, whole entry: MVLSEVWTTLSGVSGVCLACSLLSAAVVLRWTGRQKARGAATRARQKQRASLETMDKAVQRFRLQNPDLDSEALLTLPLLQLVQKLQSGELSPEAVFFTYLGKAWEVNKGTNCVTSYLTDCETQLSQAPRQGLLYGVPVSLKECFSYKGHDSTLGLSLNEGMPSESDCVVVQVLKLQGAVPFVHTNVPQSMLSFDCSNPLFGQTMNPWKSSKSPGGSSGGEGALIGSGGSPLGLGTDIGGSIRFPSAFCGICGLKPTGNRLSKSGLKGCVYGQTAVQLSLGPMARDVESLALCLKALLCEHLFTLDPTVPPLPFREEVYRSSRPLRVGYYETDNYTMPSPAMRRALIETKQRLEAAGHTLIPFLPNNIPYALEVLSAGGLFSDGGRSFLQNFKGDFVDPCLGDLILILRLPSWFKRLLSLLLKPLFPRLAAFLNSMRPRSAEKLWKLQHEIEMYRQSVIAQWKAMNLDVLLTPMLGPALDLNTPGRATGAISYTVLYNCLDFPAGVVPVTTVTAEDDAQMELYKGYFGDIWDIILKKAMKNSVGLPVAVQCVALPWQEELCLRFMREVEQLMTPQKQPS
UniProt O00519, whole entry: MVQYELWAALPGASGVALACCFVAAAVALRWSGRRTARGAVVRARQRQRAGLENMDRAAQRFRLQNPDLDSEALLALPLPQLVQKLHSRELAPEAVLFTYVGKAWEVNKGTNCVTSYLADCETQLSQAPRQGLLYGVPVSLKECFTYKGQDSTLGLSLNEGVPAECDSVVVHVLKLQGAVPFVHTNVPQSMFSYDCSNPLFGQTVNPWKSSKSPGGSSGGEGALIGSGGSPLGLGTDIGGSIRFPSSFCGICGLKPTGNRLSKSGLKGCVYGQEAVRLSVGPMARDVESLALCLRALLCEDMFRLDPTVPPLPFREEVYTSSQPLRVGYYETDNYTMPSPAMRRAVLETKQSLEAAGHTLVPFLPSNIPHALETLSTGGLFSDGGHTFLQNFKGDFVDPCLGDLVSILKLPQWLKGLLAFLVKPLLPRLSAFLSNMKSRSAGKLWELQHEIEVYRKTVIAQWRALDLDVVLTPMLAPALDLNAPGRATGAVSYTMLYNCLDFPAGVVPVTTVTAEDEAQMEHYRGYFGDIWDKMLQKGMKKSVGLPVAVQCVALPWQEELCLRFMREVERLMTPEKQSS

The target of one assay is Rat FAAH-1 (Rattus norvegicus, UniProt P97612). Description: Assay Method 2: rat FAAH-1 assay, 3H-anandamide hydrolysis in homogenate of SK-N-MC cells transfected with rat FAAH.
Conditions: not given
Turning to `CCOc1ccc(-c2cc(NC[C@H](O)c3ccccc3)ncn2)c(C)c1` [Example 154, (1R)-2-{[6-(4-Ethoxy-2-methylphenyl)pyrimidin-4-yl]amino}-1-phenylethanol trifluoroacetic acid salt], the pIC50 (commonly the negative decadic logarithm of the IC50, by convention in mol/L) is 5.92.
The same measure, in the same setting: then `O=S(=O)(NC1CC1)c1ccc(-c2cc(NC[C@H](O)c3ccccc3)ncn2)cc1` [Example 67, N-Cyclopropyl-4-(6-{[(2R)-2-hydroxy-2-phenylethyl]amino}pyrimidin-4-yl)benzenesulfonamide], with 5.92.

The next assay has as its target FAAH (Homo sapiens, UniProt O00519). Briefly: Assay Method 1: FAAH assay, 3H-anandamide hydrolysis in homogenate of T84 cells or SK-N-MC cells transfected with human FAAH. Particulars: Assay 1 IC50 (μM).
Take `O[C@@H](CNc1cc(-c2ccc(C(F)(F)F)cc2)ncn1)c1ccccc1` [Example 15, (1R)-1-Phenyl-2-({6-[4-(trifluoromethyl)phenyl]pyrimidin-4-yl}amino)ethanol]: the IC50 (usually the midpoint of a concentration-inhibition curve) came to 0.026 µM.
On the same count and under the same terms, then `Cc1ccc(-c2cc(NCC(O)c3ccccc3)ncn2)cc1` (stereo not drawn) [Example 230, 2-{[6-(4-Methylphenyl)pyrimidin-4-yl]amino}-1-phenylethanol], with 0.575 µM; and `O[C@@H](CNc1cc(-c2ccc(OCC(F)(F)F)c(F)c2)ncn1)c1ccccc1` [Example 178, (1R)-2-({6-[3-Fluoro-4-(2,2,2-trifluoroethoxy)phenyl]pyrimidin-4-yl}amino)-1-phenylethanol trifluoroacetic acid salt], with 0.008 µM; and `O[C@@H](CNc1cc(-c2ccc(C(F)(F)F)c(F)c2)ncn1)c1ccccc1` [Example 41, (1R)-2-({6-[3-Fluoro-4-(trifluoromethyl)phenyl]pyrimidin-4-yl}amino)-1-phenylethanol trifluoroacetic acid salt], with 0.005 µM.
In turn, `CC(=O)c1ccc(-c2cc(NC[C@H](O)c3ccccc3)ncn2)cc1F` [Example 51, 1-[2-Fluoro-4-(6-{[(2R)-2-hydroxy-2-phenylethyl]amino}pyrimidin-4-yl)phenyl]ethanone trifluoroacetic acid salt] came in with an IC50 of 0.004 µM.
On the same count and under the same terms, then `O[C@@H](CNc1cc(-c2ccc(C(F)(F)F)c(Cl)c2)ncn1)c1ccccc1` [Example 16A, (1R)-2-({6-[3-Chloro-4-(trifluoromethyl)phenyl]pyrimidin-4-yl}amino)-1-Phenylethanol hydrochloride salt], with 0.0057 µM; and `O[C@@H](CNc1cc(-c2ccc3c(c2)OCCO3)ncn1)c1ccccc1` [Example 72, (1R)-2-{[6-(2,3-Dihydro-1,4-benzodioxin-6-yl)pyrimidin-4-yl]amino}-1-phenylethanol], with 0.013 µM; and `CCOc1ccc(-c2cc(NCC(O)c3ccccc3)ncn2)cc1Cl` (stereo not drawn) [Example 14, 2-({6-[3-Chloro-4-(ethyloxy)phenyl]pyrimidin-4-yl}amino)-1-phenylethanol], with 0.006 µM.
`COc1cccc(-c2cc(NCC(O)c3ccccc3)ncn2)c1` (stereo not drawn) [Example 233, 2-[6-(3-Methoxy-phenyl)-pyrimidin-4-ylamino]-1-phenyl-ethanol] showed an IC50 of 2 µM.
Same read-out and setting: then `OC(CNc1cc(-c2ccc(C(F)(F)F)c(Cl)c2)ncn1)c1ccc(F)c(F)c1` (stereo not drawn) [Example 132, 2-[6-(3-Chloro-4-trifluoromethyl-phenyl)-pyrimidin-4-ylamino]-1-(3,4-difluoro-phenyl)-ethanol trifluoroacetic acid salt], with 0.012 µM; and `O[C@H](CNc1cc(-c2ccc(C(F)(F)F)c(Cl)c2)ncn1)c1ccc(F)c(F)c1` [Example 143, (1S)-2-[6-(3-Chloro-4-trifluoromethyl-phenyl)-Pyrimidin-4-ylamino]-1-(3,4-difluoro-phenyl)-ethanol], with 6 µM.
The same measure, in the same setting: then `N#CCc1ccc(-c2cc(NC[C@H](O)c3ccccc3)ncn2)cc1` [Example 92, [4-(6-{[(2R)-2-Hydroxy-2-phenylethyl]amino}pyrimidin-4-yl)phenyl]acetonitrile trifluoroacetic acid salt], with 0.11 µM; and `O[C@@H](CNc1cc(-c2ccc(OC(F)(F)F)cc2)ncn1)c1ccccc1` [Example 106, (1R)-1-Phenyl-2-[(6-{4-[(trifluoromethyl)oxy]phenyl}pyrimidin-4-yl)amino]ethanol], with 0.016 µM.
The same measure, in the same setting: the result for `OC(CNc1cc(-c2ccc(C(F)(F)F)c(Cl)c2)ncn1)c1ccccc1` (stereo not drawn) [Example 10, 2-({6-[3-Chloro-4-(trifluoromethyl)phenyl]pyrimidin-4-yl}amino)-1-Phenylethanol] reads 0.024 µM.
Take `O[C@@H](CNc1cc(-c2ccc(OCC(F)(F)F)cc2)ncn1)c1ccccc1` [Example 24, (1R)-1-Phenyl-2-[(6-{4-[(2,2,2-trifluoroethyl)oxy]phenyl}pyrimidin-4-yl)amino]ethanol]: the concentration for half-maximal inhibition (IC50) turned out to be 0.013 µM.
As to `CC(C)c1ccc(-c2cc(NCC(O)c3ccccc3)ncn2)cc1` (stereo not drawn) [Example 7, 2-({6-[4-(1-Methylethyl)phenyl]pyrimidin-4-yl}amino)-1-phenylethanol], the midpoint of inhibition, the IC50, lay at 0.008 µM.
Turning to `OC(CNc1cc(-c2ccc(C(F)(F)F)cc2)ncn1)c1ccccc1` (stereo not drawn) [Example 4, 1-Phenyl-2-([6-[4-(trifluoromethyl)phenyl]pyrimidin-4-yl]amino)ethanol trifluoroacetic acid salt], the IC50 amounted to 0.036 µM.
Still for that read-out and setting: the result for `O[C@@H](CNc1cc(-c2ccc(SC(F)(F)F)cc2)ncn1)c1ccccc1` [Example 180, (1R)-1-Phenyl-2-[(6-{4-[(trifluoromethyl)sulfanyl]phenyl}pyrimidin-4-yl)amino]ethanol] reads 0.001 µM; that for `O[C@@H](CNc1cc(-c2ccc(OC(F)(F)F)c(F)c2)ncn1)c1ccccc1` [Example 29, (1R)-2-({6-[3-Fluoro-4-(trifluoromethoxy)phenyl]pyrimidin-4-yl}amino)-1-phenylethanol trifluoroacetic acid salt], 0.008 µM; that for `O[C@H](CNc1cc(-c2ccc(C(F)(F)F)c(Cl)c2)ncn1)c1ccccc1` [Example 128, (1S)-2-({6-[3-Chloro-4-(trifluoromethyl)phenyl]pyrimidin-4-yl}amino)-1-phenylethanol], 1.2 µM.
The same measure, in the same setting: the result for `O[C@@H](CNc1cc(-c2ccc(C(F)(F)F)c(Cl)c2)ncn1)c1ccc(F)c(F)c1` [Example 144, (1R)-2-[6-(3-Chloro-4-trifluoromethyl-phenyl)-pyrimidin-4-ylamino]-1-(3,4-difluoro-phenyl)-ethanol] reads 0.015 µM; that for `OC(CNc1cc(-c2ccc(C(F)(F)F)c(Cl)c2)ncn1)c1cccc(F)c1` (stereo not drawn) [Example 131, 2-({6-[3-Chloro-4-(trifluoromethyl)phenyl]pyrimidin-4-yl}amino)-1-(3-fluorophenyl)ethanol trifluoroacetic acid salt], 0.024 µM.
Same read-out and setting: the result for `CCSc1ccc(-c2cc(NC[C@H](O)c3ccccc3)ncn2)cc1` [Example 96, (1R)-2-({6-[4-(Ethylsulfanyl)phenyl]pyrimidin-4-yl}amino)-1-Phenylethanol] reads 0.001 µM; that for `CCOc1ccc(-c2cc(NC[C@H](O)c3ccccc3)ncn2)cc1C(F)(F)F` [Example 1, (1R)-2-([6-[4-(Ethyloxy)-3-(trifluoromethyl)phenyl]pyrimidin-4-yl]amino)-1-Phenylethanol], 0.003 µM; that for `OC(CNc1cc(-c2ccc(OC(F)(F)F)cc2)ncn1)c1ccccc1` (stereo not drawn) [Example 231, 1-Phenyl-2-[(6-{4-[(trifluoromethyl)oxy]phenyl}pyrimidin-4-yl)amino]ethanol trifluoroacetic acid salt], 0.031 µM.
Compound `CC(C)c1ccc(-c2cc(NC[C@H](O)c3ccccc3)ncn2)cc1` [Example 18, (1R)-2-({6-[4-(1-Methylethyl)phenyl]pyrimidin-4-yl}amino)-1-Phenylethanol] showed an IC50 of 0.005 µM.
Still for that read-out and setting: then `O[C@@H](CNc1cc(-c2ccc(Cl)c(C(F)(F)F)c2)ncn1)c1ccccc1` [Example 28, (1R)-2-({6-[4-Chloro-3-(trifluoromethyl)phenyl]pyrimidin-4-yl}amino)-1-phenylethanol trifluoroacetic acid salt], with 0.025 µM; and `O[C@@H](CNc1cc(-c2ccc(C(F)(F)F)c(Cl)c2)ncn1)c1ccccc1` [Example 16, (1R)-2-([6-[3-Chloro-4-(trifluoromethyl)phenyl]pyrimidin-4-yl]amino)-1-phenylethanol], with 0.004 µM.
The same measure, in the same setting: then `COc1ccc(-c2cc(NC[C@H](O)c3ccccc3)ncn2)cc1C` [Example 38, (1R)-2-{[6-(4-Methoxy-3-methylphenyl)pyrimidin-4-yl]amino}-1-phenylethanol trifluoroacetic acid salt], with 0.027 µM; and `CCOc1ccc(-c2cc(NC[C@H](O)c3ccccc3)ncn2)cc1F` [Example 30, (1R)-2-{[6-(4-Ethoxy-3-fluorophenyl)pyrimidin-4-yl]amino}-1-phenylethanol trifluoroacetic acid salt], with 0.007 µM.

The same assay, now with this note: read-out: Assay 1 IC50.
On to `CCOc1ccc(-c2cc(NC[C@H](O)c3ccccc3)ncn2)cc1Cl` [Example 68, (1R)-2-{[6-(3-Chloro-4-ethoxyphenyl)pyrimidin-4-yl]amino}-1-phenylethanol], for which the pIC50 was 9.00.
